# Results as given in publication PMC8836147, “Design, Synthesis and Antifungal/Nematicidal Activity of Novel 1,2,4-Oxadiazole Derivatives Containing Amide Fragments” (International Journal of Molecular Sciences, 2022).
# Sequences of proteins named here, by UniProt entry; tags and fusion partners are left off. Residues count along the entry.
# UniProt A7E8N3, 45-189: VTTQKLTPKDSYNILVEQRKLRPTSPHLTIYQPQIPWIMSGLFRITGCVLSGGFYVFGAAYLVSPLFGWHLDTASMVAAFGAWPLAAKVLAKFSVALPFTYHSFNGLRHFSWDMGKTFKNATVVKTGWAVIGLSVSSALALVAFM
# UniProt A7EGE3, 30-301: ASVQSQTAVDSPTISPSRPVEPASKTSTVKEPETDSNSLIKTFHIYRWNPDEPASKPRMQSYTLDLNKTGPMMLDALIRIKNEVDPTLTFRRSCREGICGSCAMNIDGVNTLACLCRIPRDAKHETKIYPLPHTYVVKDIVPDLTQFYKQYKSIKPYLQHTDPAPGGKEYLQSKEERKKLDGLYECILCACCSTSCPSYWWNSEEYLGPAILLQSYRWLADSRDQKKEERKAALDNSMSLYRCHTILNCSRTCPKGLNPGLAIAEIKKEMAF
# UniProt A7ELH6, 55-192: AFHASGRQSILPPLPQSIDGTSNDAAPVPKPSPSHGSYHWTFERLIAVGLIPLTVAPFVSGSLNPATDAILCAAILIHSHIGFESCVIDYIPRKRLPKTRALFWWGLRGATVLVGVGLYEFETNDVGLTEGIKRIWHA
# Target: S. sclerotiorum SDH (Sclerotinia sclerotiorum, UniProt A7E8N3+A7EGE3+A7ELH6)
# Test: SDH enzyme activity bioassay (succinate dehydrogenase assay kit)
# Type: biochemical
# Procedure: The succinate dehydrogenase assay kit (Comin, Jiangsu, China) was used to determine the enzyme activity of F15, which was assessed as reported previously. S. sclerotiorum was grown in potato dextrose (PD) medium containing F15 with different concentrations to test the IC50 value of SDH. Fluopyram was used as a positive control. All operations were strictly in accordance with the operating instructions of the SDH assay kit. The absorbance of each treatment on fungal SDH was measured at 600 nm to determine the inhibitory effects of each treatment on fungal SDH.
structure (smiles),measurement,value
"O=C(NCCc1ncc(C(F)(F)F)cc1Cl)c1ccccc1C(F)(F)F [Fluopyram, fluopyram, reference compound]",IC50,19.9 µM
